According to ChEMBL document CHEMBL2069294, “Synthesis and evaluation of hybrid drugs for a potential HIV/AIDS-malaria combination therapy” (Bioorg Med Chem, 2012):

System: HeLa
Assay: Cytotoxicity against human HeLa cells by MTT assay
Format: cell-based

## C1OOCOO1
  IC50: > 100 µM
